Our source for the fraction of remaining proteolytic activity with 100 nM inhibitor (fraction of uninhibited rate) and Ki values is patent US5786328.

Targets include Human Factor Xa (human) (UniProt P00742); Human thrombin (human) (UniProt P00734); Human plasmin (human) (UniProt P00747).
Experiment [1] concerns the target Human activated protein C (human) (UniProt P04070).
The target of experiment [2] is tissue factor-Factor VIIa (human) (UniProt P13726).
Experiment [3] addresses Human Factor XIIa (human) (UniProt P00748).
In experiment [4] the target is Human Factor XIa (human) (UniProt P03951).
For experiment [5], the target named is Human plasma kallikrein (human) (UniProt P03952).
In experiment [6] the target is Human Factor XIa (human) (UniProt P03951). Description: inhibition of FXIa, chromogenic substrate, fit for tight-binding inhibitors (apparent Ki*).

pKi: −log10 of the molar value.

With “BPTI (bovine basic pancreatic trypsin inhibitor)”, the fraction of remaining proteolytic activity with 100 nM inhibitor (fraction of uninhibited rate) with Human Factor Xa (human) stood at 0.99; in [1], 0.84; in experiment [2], 1.01; with Human thrombin (human) it was 0.97; in experiment [3] it was 1.01; with Human plasmin (human), 0. The fraction of remaining proteolytic activity with 100 nM inhibitor (fraction of uninhibited rate) with Human Factor XIa (human) [4] worked out at 0.67; in experiment [5] it was 0.34.
“BPTI (bovine basic pancreatic trypsin inhibitor) (other; other documents disagree on this pair)”: the pKi (commonly the negative decadic logarithm of the Ki, by convention in mol/L) in the experiment with Human Factor XIa (human) [6] is below 6.52.
